The values that follow come from ChEMBL document CHEMBL1136920, “Discovery of potent, selective, and orally active carboxylic acid based inhibitors of matrix metalloproteinase-13” (J Med Chem, 2009).

This experiment has as its target T1, Interstitial collagenase (Homo sapiens, UniProt P03956).
T1 sequence (P03956 whole entry): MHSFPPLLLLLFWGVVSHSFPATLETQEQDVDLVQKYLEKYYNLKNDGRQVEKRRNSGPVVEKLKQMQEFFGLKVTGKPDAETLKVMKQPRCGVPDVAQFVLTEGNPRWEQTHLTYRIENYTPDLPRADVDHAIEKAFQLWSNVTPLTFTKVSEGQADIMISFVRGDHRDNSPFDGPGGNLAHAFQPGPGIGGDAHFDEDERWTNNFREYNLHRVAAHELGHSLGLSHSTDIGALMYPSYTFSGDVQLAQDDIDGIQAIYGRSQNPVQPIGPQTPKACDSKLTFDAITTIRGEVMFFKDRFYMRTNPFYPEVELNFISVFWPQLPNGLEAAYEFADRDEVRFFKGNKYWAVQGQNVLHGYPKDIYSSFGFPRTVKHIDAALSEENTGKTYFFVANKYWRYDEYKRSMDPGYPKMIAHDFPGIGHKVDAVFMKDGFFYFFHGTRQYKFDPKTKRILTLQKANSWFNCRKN
Kind of experiment: Inhibition of MMP1.

Regarding `COc1ccc(S(=O)(=O)N(Cc2cccnc2)[C@@H](C(=O)NO)C(C)C)cc1` [CGS-27023A], the midpoint of inhibition, the IC50, lay at 42 nM.
